# Measured values from patent US11931424B2, “Combination MCL-1 inhibitors with anti-body drug conjugates” (Gilead Sciences, Inc., priority 2021, dated 2024).
# Structures can show the parent of a compound that is named as a salt.
# Test system: panel of breast cancer cell lines
# Experiment: Compound A with targeted agents and chemotherapies, 72-hour in vitro proliferation assays
# Format: cell-based
# Details: compound A × partner, 72-hour proliferation
smiles,measurement,setting,value
COc1cccc2c1C(=O)c1c(O)c3c(c(O)c1C2=O)C[C@@](O)(C(=O)CO)C[C@@H]3O[C@H]1C[C@H](N)[C@H](O)[C@H](C)O1 [Doxorubicin Hcl],HSA volume,HDQ-P1,−1.23
same,Synergy Score,HDQ-P1,3.52
CC1(C)CCC(c2ccc(Cl)cc2)=C(CN2CCN(c3ccc(C(=O)NS(=O)(=O)c4ccc(N[C@H](CCN5CCOCC5)CSc5ccccc5)c(S(=O)(=O)C(F)(F)F)c4)cc3)CC2)C1 [ABT-263],Loewe Volume,HCC38,20.66
